Data reported in patent US11484608B2, “Non-invasive assessment of hepatic mitochondrial metabolism by positional isotopomer NMR tracer analysis (PINTA)” (YALE UNIVERSITY, priority 2017, dated 2022).

Test system: hepatic glucose production, VPC and VCS (InsP3R-I signaling)
Test: Acute 2 hr glucagon infusion in WT and liver-specific InsP3R-I KO mice
Details: acute infusion 5 ng kg^−1 min^−1, 2 hr, overnight-fasted mice
Source text: All protocols were approved by the Yale University Animal Care and Use Committee. Liver-specific InsP3R-I KO mice were generated as described (Feriod, et al. Hepatology Communications 1, 23-35, 2017) and in all experiments, littermates were studied at 10-12 weeks of age. They were fed standard chow (Teklad #2018) and housed on a 12 hr light/dark cycle in the Yale Animal Resources Center. To knock down ATGL in a liver-specific manner, an adeno-associated virus targeting ATGL (Vector BioLabs, 10^12 gc per mouse) was administered by retro-orbital injection four weeks prior to studies. […]
Total glucose turnover (i.e. hepatic glucose production) was measured by determining the specific activity of [^3H] glucose in plasma using a scintillation counter, and the VPC/VHGP ratio was calculated using the equation
[formula] and calculated absolute VCS by dividing VPC by VPC/VCS. […] Liver [^13C] bicarbonate enrichment was measured by GC-MS (HP-1 column: 12 m×0.2 mm×0.33 μm film, isothermal: 110° C.). […] After ten minutes, CO2 was sampled from the head-space and ions with m/z 44 and 45 daltons were monitored using electron impact ionization.
Plasma glucose concentrations were measured using a YSI Glucose Analyzer. […] Plasma NEFA concentrations were measured using the Wako NEFA assay, while plasma glycerol and plasma and liver amino acid concentrations were measured by GC/MS. […]

Question: Which “rise in plasma glucagon concentrations” value does the source give for glucagon here?
Answer: approximately five-fold
